# Laboratory results taken from paper PMC4917279 (Journal of Medicinal Chemistry, 2016).
# By UniProt entry, the sequences of proteins in these tests, tags left out. Where a name states a change or a piece, a line headed by the entry shows the natural chain unless it says otherwise.
# UniProt Q9NRG4: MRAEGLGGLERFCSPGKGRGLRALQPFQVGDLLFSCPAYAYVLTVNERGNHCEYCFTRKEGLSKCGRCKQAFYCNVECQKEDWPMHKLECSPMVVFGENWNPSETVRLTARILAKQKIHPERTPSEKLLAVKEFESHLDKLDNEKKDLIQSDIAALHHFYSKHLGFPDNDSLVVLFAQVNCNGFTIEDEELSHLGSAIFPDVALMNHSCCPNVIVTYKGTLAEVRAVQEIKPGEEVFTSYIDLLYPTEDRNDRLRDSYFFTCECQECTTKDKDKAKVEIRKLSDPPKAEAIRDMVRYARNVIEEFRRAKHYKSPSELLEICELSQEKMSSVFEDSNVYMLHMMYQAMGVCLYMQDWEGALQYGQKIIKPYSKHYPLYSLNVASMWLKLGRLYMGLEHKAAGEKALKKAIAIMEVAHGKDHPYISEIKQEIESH
# Biological target: SMYD2 (Homo sapiens, UniProt Q9NRG4)
# Assay: Mechanism-of-inhibition studies (SPA, Cheng-Prusoff)
# Assay type: biochemical
# Design: The SMYD2 full-length enzyme with an N-terminal 6xHis tag was expressed in Escherichia coli; made in house; host or cells: Escherichia coli
# Details: SAM titration, Cheng–Prusoff uncompetitive model
structure (smiles),measurement,value
CCN(C(=O)CO)[C@H]1CN(/C(=N\C#N)Nc2cccc(OC(F)F)c2)N=C1c1ccc(Cl)c(Cl)c1 [(S)-4],αKi(app),28 ± 3 nM
